Test results reported in PubChem BioAssay AID602163 (The Scripps Research Institute Molecular Screening Center, 2012).
This is a selection; strong and weak results do not stand in their true shares. Activity calls are given as the source filed them. No stated cut-off is given here; in the data, active means activation above about 7.5%; inactive means the rest.

Test system: Methionine sulfoxide reductase A (Bos taurus)
Assay: activation of methionine sulfoxide reductase A – biochemical, absorbance, bovine, HTS, primary screen (AID 602163);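 further: 0% = vehicle and 100% = reference activator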
Details: purified bovine MsrA, absorbance read-out; at 10.6 µM; stronger effect = higher value

Which activation does the source give for `O=C(NCC1(N2CCCCC2)CCCCC1)c1cccc([N+](=O)[O-])c1` here?
The activation was inactive: -3.79%.

`CSc1ccc(C(=O)NCC2(N3CCOCC3)CCCCC2)cc1` was tested. Which activation did it give?
Its activation is inactive: -5.46%.

With `CCN1CCC(Nc2ccc(Cl)cc2)CC1` as the molecule, how does the activation read?
The activation was inactive: 2.79%.

With `O=c1[nH]c2ccccc2n1C1CCN(C(c2ccccc2OC(F)(F)F)c2nnnn2C2CCCC2)CC1` (centres undefined) as the molecule, how does the activation read?
Its activation is inactive: 0.57%.

Which activation does the source give for `N#CC1(Nc2ccccc2)CCN(CCc2ccccc2)CC1` here?
Its activation is inactive: 1.03%.

For `CC(C)(C)n1nnnc1C(c1ccccc1OC(F)(F)F)N1CCC(n2c(=O)[nH]c3ccccc32)CC1` (centres undefined), which activation is on record?
The activation was inactive: -5.22%.

How did the activation turn out when `O=C(NCC1(N2CCCCC2)CCCCC1)c1ccc(OC(F)F)cc1` was run?
Its activation is inactive: -2.45%.

Which activation does the source give for `CC(C)(C)n1nnnc1C(c1cccc2ccccc12)N1CCC(n2c(=O)[nH]c3ccccc32)CC1` (centres undefined) here?
Its activation is inactive: 0.28%.

With `c1ccc(CN2CCC(Nc3ccccc3)CC2)cc1` as the molecule, how does the activation read?
The activation was inactive: -0.09%.

With `O=c1[nH]c2ccccc2n1C1CCN(C(c2ccccc2)c2nnnn2C2CCCC2)CC1` (centres undefined) as the molecule, how does the activation read?
Its activation is inactive: -8.16%.

Which activation does the source give for `CCCN1CCC(Nc2cc(OC)cc(OC)c2)CC1` here?
Its activation is inactive: 2.03%.

With `Cc1cc(N(CCCl)CCCl)ccc1C=O` as the molecule, how does the activation read?
The activation was inactive: -3.8%.

For `CN(C)C1(CNC(=O)c2cccc(C#N)c2)CCCCC1`, which activation is on record?
The activation was inactive: -3.42%.

How did the activation turn out when `CC(C)(C)OC(=O)N1CCC(N(C(=O)c2ccccc2)c2ccc(Cl)cc2)CC1` was run?
Its activation is inactive: 0.05%.

How did the activation turn out when `N#Cc1ccc(C(=O)NCC2(N3CCCCC3)CCCCC2)cc1` was run?
Its activation is inactive: -9.57%.

`CCCCn1nnnc1C(c1cccc(OC)c1OC)N1CCC(n2c(=O)[nH]c3ccccc32)CC1` (centres undefined) was tested. Which activation did it give?
Its activation is inactive: 2.53%.

Which activation does the source give for `O=C(OC1CN2CCC1CC2)C1c2ccccc2C=Cc2ccccc21` (centres undefined) here?
The activation was inactive: -2.57%.

How did the activation turn out when `O=c1[nH]c2ccccc2n1C1CCN(C(c2cccs2)c2nnnn2C2CCCC2)CC1` (centres undefined) was run?
The activation was inactive: -1.42%.

With `N/C(=N\O)c1c(N)no[n+]1[O-]` as the molecule, how does the activation read?
The activation was inactive: -3.27%.

Which activation does the source give for `CCOC(=O)N1CCC(Nc2ccc(C)cc2)CC1` here?
Its activation is inactive: -6.38%.

Which activation does the source give for `COc1cccc(C(c2nnnn2C(C)(C)C)N2CCC(n3c(=O)[nH]c4ccccc43)CC2)c1OC` (centres undefined) here?
The activation was inactive: -5.12%.

`COc1ccc(C(=O)NCC2(N3CCOCC3)CCCCC2)cc1OC` was tested. Which activation did it give?
Its activation is inactive: -8.05%.

Which activation does the source give for `O=c1[nH]c2ccccc2n1C1CCN(C(c2ccnc3ccccc23)c2nnnn2C2CCCC2)CC1` (centres undefined) here?
Its activation is inactive: -0.76%.

`O=c1[nH]c2ccccc2n1C1CCN(C(c2cccs2)c2nnnn2C2CCCCC2)CC1` (centres undefined) was tested. Which activation did it give?
Its activation is inactive: -2.75%.

How did the activation turn out when `O=C(NCC1(N2CCOCC2)CCCCC1)c1cc(Br)ccc1Cl` was run?
The activation was inactive: -1.51%.

How did the activation turn out when `CCCCn1nnnc1C(c1ccccc1)N1CCC(n2c(=O)[nH]c3ccccc32)CC1` (centres undefined) was run?
The activation was inactive: -0.71%.

For `COc1cc(C(=O)NCC2(N3CCOCC3)CCCCC2)cc(OC)c1C`, which activation is on record?
Its activation is inactive: 0.14%.

How did the activation turn out when `CN1CCC(Nc2ccc(Cl)cc2)CC1` was run?
The activation was inactive: 0%.

For `CCC(CO)(C(=O)OC1CN2CCC1CC2)c1ccccc1` (centres undefined), which activation is on record?
The activation was inactive: -9.82%.

Which activation does the source give for `COc1cccc(C(=O)N(c2cc(C)cc(C)c2)C2CCN(C(=O)OC(C)(C)C)CC2)c1` here?
The activation was inactive: 0.45%.

`COc1cc(OC)cc(C(=O)NCC2(N3CCOCC3)CCCCC2)c1` was tested. Which activation did it give?
Its activation is inactive: -0.79%.

`COc1cccc(C(c2nnnn2C2CCCC2)N2CCC(n3c(=O)[nH]c4ccccc43)CC2)c1OC` (centres undefined) was tested. Which activation did it give?
The activation was inactive: -1.71%.

How did the activation turn out when `O=c1[nH]c2ccccc2n1C1CCN(C(c2cc3ccccc3o2)c2nnnn2C2CCCC2)CC1` (centres undefined) was run?
The activation was inactive: -0.57%.

With `CCCOc1ccc(C(=O)NCC2(N(C)C)CCCCC2)cc1` as the molecule, how does the activation read?
Its activation is inactive: -0.77%.

Which activation does the source give for `CC(C)(C)OC(=O)N1CCC(Nc2ccccc2)CC1` here?
Its activation is inactive: -11.5%.

With `NN(c1ccccc1)C1CCN(CCc2ccccc2)CC1` as the molecule, how does the activation read?
Its activation is inactive: 0.19%.

Which activation does the source give for `O=C(O)C1(Nc2ccccc2)CCN(Cc2ccccc2)CC1` here?
Its activation is inactive: -4.29%.

For `CCOc1ncccc1C(=O)NCC1(N2CCOCC2)CCCCC1`, which activation is on record?
The activation was inactive: -0.7%.

Which activation does the source give for `CN1CCC(Nc2ccc(F)c(Cl)c2)CC1` here?
The activation was inactive: -1.33%.

`O=C(NCC1(N2CCCCC2)CCCCC1)c1ccco1` was tested. Which activation did it give?
Its activation is inactive: -1.05%.

With `CN(C)c1ccc(C(=O)NCC2(N3CCCCC3)CCCCC2)cc1` as the molecule, how does the activation read?
The activation was inactive: -5.69%.

With `Cn1c(=O)[nH]cc(N(CCCl)CCCl)c1=O` as the molecule, how does the activation read?
Its activation is inactive: -0.71%.

How did the activation turn out when `Cc1ccccc1NC1(C#N)CCN(Cc2ccccc2)CC1` was run?
The activation was inactive: -2.21%.

Which activation does the source give for `COc1ccc(C(c2nnnn2C2CCCCC2)N2CCC(n3c(=O)[nH]c4ccccc43)CC2)cc1` (centres undefined) here?
Its activation is inactive: -3.96%.

`CCN1CCC(Nc2cccc(F)c2)CC1` was tested. Which activation did it give?
The activation was inactive: -1.72%.

With `CC(C)(C)n1nnnc1C(c1ccnc2ccccc12)N1CCC(n2c(=O)[nH]c3ccccc32)CC1` (centres undefined) as the molecule, how does the activation read?
The activation was inactive: -11.5%.

How did the activation turn out when `Cc1ccc(NC2(C#N)CCN(Cc3ccccc3)CC2)cc1` was run?
The activation was inactive: -3.54%.

With `Cc1ccc(C(=O)NCC2(N3CCCCC3)CCCCC2)o1` as the molecule, how does the activation read?
The activation was inactive: 2.27%.

`Fc1ccccc1NC1CCN(Cc2ccccc2)CC1` was tested. Which activation did it give?
Its activation is inactive: 0.33%.

How did the activation turn out when `COc1cc(OC)cc(C(=O)NCC2(N3CCCCC3)CCCCC2)c1` was run?
The activation was inactive: -2.39%.

`O=c1[nH]c2ccccc2n1C1CCN(C(c2ccnc3ccccc23)c2nnnn2C2CCCCC2)CC1` (centres undefined) was tested. Which activation did it give?
Its activation is inactive: 0.66%.

Which activation does the source give for `COc1cccc(C(c2nnnn2C2CCCCC2)N2CCC(n3c(=O)[nH]c4ccccc43)CC2)c1OC` (centres undefined) here?
The activation was inactive: -0.85%.

Which activation does the source give for `CC(=O)N(c1ccccc1)C1CCNCC1` here?
The activation was inactive: -7.2%.

With `CCC(c1nnnn1C1CCCCC1)N1CCC(n2c(=O)[nH]c3ccccc32)CC1` (centres undefined) as the molecule, how does the activation read?
The activation was inactive: -7.4%.
